Earlier results in US20090233840A1, “Modified Dynorphin Expression in Animals and Identification of Compounds for Treatment of Obesity and Diabetes” (priority 2004, published 2009).

Sequences of proteins named here, by UniProt entry; tags and fusion partners are left off.
UniProt P35372, whole entry: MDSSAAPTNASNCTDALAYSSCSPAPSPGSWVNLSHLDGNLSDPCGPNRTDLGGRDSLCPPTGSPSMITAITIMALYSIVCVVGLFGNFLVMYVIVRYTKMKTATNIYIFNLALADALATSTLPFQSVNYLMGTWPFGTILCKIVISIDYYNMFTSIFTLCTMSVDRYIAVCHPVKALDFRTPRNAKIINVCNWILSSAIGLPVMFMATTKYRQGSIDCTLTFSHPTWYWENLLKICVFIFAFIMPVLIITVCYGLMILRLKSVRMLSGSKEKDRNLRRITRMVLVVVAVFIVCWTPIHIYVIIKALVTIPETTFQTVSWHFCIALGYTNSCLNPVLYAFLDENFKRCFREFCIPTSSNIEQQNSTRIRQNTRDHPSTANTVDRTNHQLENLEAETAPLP

Molecular target: hMOR-1 (Homo sapiens, UniProt P35372)
Settings: MOR-1 receptor

## dynorphin A-(1-8)
  affinity compared to dynorphin A: relatively higher affinity
